# Results reported in publication PMC6865181, “Role of L-Type Amino Acid Transporter 1 (LAT1) for the Selective Cytotoxicity of Sesamol in Human Melanoma Cells” (Molecules, 2019).
# Sequences of proteins named here, by UniProt entry; tags and fusion partners are left off. A change or cut given only in a name is not applied to a line headed by its entry.
# UniProt Q01650: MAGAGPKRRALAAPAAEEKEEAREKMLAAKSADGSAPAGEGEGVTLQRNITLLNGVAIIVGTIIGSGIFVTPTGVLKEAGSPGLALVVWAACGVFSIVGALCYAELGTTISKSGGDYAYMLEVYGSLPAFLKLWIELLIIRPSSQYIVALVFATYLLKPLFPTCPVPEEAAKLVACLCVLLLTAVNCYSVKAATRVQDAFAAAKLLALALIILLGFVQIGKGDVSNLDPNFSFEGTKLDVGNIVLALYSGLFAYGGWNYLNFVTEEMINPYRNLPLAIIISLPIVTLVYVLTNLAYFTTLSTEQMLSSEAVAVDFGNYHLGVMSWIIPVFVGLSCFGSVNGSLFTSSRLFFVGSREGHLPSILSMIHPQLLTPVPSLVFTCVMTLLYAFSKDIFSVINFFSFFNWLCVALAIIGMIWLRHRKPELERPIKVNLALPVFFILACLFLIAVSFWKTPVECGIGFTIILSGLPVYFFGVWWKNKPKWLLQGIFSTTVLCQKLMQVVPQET
# Tests used:
# LAT1 [1] = conditions: Vero cells; sesamol 0.1 mM, 10 min; competitor at the concentration printed in the row
# Method: (§1) SK-MEL-2 and Vero cells were seeded separately into 24-well plates at 2 × 10^5 cells/well for 24 h. The media was removed, and the cells pre-incubated with HBSS pH 7.4 for 10 min. The cells were used for the following experiments.
# Competitive inhibition of uptake of sesamol was done in both SK-MEL-2 and the Vero cells. […] The cells were washed twice with ice-cold PBS, solubilized in methanol, and centrifuged at 2400× g, at 4 °C for 20 min. The precipitated protein was re-solubilized by 0.1 M NaOH prior to protein determination. The sesamol content was quantified using HPLC assay. The cellular uptake of sesamol was calculated as per the C/M ratio.
# Quantitative analysis of sesamol and L-dopa were performed using a Shimadzu HPLC (LC-2030C-3D) with a UV photodiode array detector (DAD) (Kyoto, Japan). The analysis was based on a BDS Hypersil C-18 column, (4.6 × 250 mm, 5 µm packing, Thermo Fisher Scientific, Waltham, MA, USA). The column temperature was set at 30 °C with a flow rate of 0.8 mL/min. The mobile phase for sesamol quantification was 70% methanol in water, vs. 20% methanol in water for L-dopa. […] The validated sesamol quantification conducted using sesamol spiked cell lysate with high selectivity and clear separation from the endogenous cell lysate as previously reported. The % bias and % precision was determined within and between days, each was maintained below 6%.
# LAT1 [2] = molecular target: LAT1 (Homo sapiens, UniProt Q01650); assay: LAT1 function: competitive uptake of L-dopa in SK-MEL-2 cells; format: cell-based; conditions: L-dopa 0.1 mM, 10 min, competitor at the concentration printed in the row
# Method: as §1
# Sesamol was also investigated for its affinity to LAT1. […] Competitive uptake was performed for 10 min then the cells were washed twice with ice-cold PBS. The L-dopa was solubilized by 0.1 M HCl and the cell lysate (25 µL) was pipetted for protein determination. […] Intracellular and extracellular L-dopa was quantified by the HPLC assay. The L-dopa uptake was represented as the distribution volume of L-dopa in a cell to media ratio (C/M ratio) as calculated in Section 4.3.1.
# The analysis was based on a BDS Hypersil C-18 column, (4.6 × 250 mm, 5 µm packing, Thermo Fisher Scientific, Waltham, MA, USA). The column temperature was set at 30 °C with a flow rate of 0.8 mL/min. The mobile phase for sesamol quantification was 70% methanol in water, vs. 20% methanol in water for L-dopa. […] The validated sesamol quantification conducted using sesamol spiked cell lysate with high selectivity and clear separation from the endogenous cell lysate as previously reported. The % bias and % precision was determined within and between days, each was maintained below 6%.
compound,measurement,setting,value
N[C@@H](Cc1ccc(O)cc1)C(=O)O [L-tyrosine],Sesamol Distribution Volume in presence of the compound,LAT1 [1],10.5 ± 0.7 µL/mg Protein
same,L-Dopa Distribution Volume in presence of the compound,LAT1 [2],105.0 ± 5.2 µL/mg Protein
